Conditions: rat, in vivo

Substance: poly(lactic acid) [PLA]
- detection in red blood cells pellet: nothing was detected
